In patent WO2016169030A1, “Fumarate and crystals of pyridylamine compound” (priority 2015, dated 2016):

Assay: Humidity (wettability/hygroscopicity) test, Chinese Pharmacopoeia 2010
Type: physicochemical
Details: Guidelines for Drug Wetting Test, Chinese Pharmacopoeia 2010 Edition 2 Appendix XIX J; Table 2

Q: Which Wet weight gain does the source give for Succinate here?
A: 3.60%
